Literature values in PMC6447844 (Cancer Science, 2019).

System: patients with advanced NSCLC harboring MET exon 14 skipping mutations
Conditions: cited from earlier work

CN1CCC(COc2cnc(-c3cccc(Cn4nc(-c5cccc(C#N)c5)ccc4=O)c3)nc2)CC1 [Tepotinib]
ORR (95% CI, 33.9-72.5): 53.6%
Median DOR: 12.39 months
